## scFv variants of Ab-14 (light chain) against a SARS-CoV-2 spike peptide

From the AlphaSeq antibody data of Li et al. 2023 (doi:10.1038/s41467-023-39022-2), copy in the FLAb collection.

Binding partner: SARS-CoV-2 spike HR2 peptide, sequence PDVDLGDISGINAS.

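The parent was found by panning a naive human phage display library on the peptide. Designed CDR sequences, proposed from the first random library and measured here. Their group label is 14L_GP_HC (GP: Gaussian process model; HC: hill climbing; a sequence that several methods proposed may carry one label only). The scFvs were displayed on barcoded MATa yeast, the peptide on MATalpha yeast. Binding brings cells together so that they mate, and sequencing counts the barcode pairs among the diploids. The ratio of observed to expected reads was calibrated, replicate by replicate, on BCL2-family standards whose Kd was known from biolayer interferometry. Each pool was mated in six replicate cultures.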

Parent: Ab-14, a human scFv built as VH, three GGGGS repeats, VL. Only the CDRs of the light chain vary.
VH: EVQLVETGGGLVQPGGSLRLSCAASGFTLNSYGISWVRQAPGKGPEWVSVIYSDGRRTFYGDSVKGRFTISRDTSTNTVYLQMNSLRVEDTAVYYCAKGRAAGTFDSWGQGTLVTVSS
VL: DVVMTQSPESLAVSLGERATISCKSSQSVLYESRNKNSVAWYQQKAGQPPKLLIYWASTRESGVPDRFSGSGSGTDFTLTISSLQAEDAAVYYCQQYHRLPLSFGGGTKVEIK

Positions count from residue 1 of the parent VL; S25T puts T in place of S.
Values are log10 of the apparent Kd in nM; lower means stronger binding.
Averages over replicates are reported, and they cover detected replicates only.
"nd" marks a missing value. The strain was present, yet no cells mated with the target were sequenced in that replicate, which points to weak or no binding.
The range of this assay differs from that of the first round, and the authors advise against merging the two.
The parent sequence was in this pool as ten entries: three were never detected, three once, and four in most replicates, with averages from 0.34 to 2.37.
Nonspecific signal, from three strains lacking the peptide, appeared in 4% of pairings of all light chain designs, centred on 2.64 (5% of these signals below 1.59); values are not corrected for it. The control count says in how many pairings with the empty strains this scFv gave a signal, with their mean in brackets.
The authors averaged sequences with at least three values out of six and counted those with two or fewer as poor binders.

| changes | replicates, log10 nM | log10 Kd (nM), mean | empty controls |
|---|---|---|---|
| S25T+S26G+S28G+W56G+T59Y | 0.24 / -0.07 / -0.11 / -0.29 / 0.02 / -0.02 | -0.04 | 0 of 18 |
| K24H+Q27P+S38N+W56E | 0.02 / -0.24 / -0.11 / -0.31 / -0.21 / -0.26 | -0.18 | 3 of 18 (3.02) |
| Q27E+V29G+W56E | 0.20 / -0.19 / 0.17 / -0.14 / 0.29 / 0.42 | 0.12 | 0 of 18 |
| S25T+S28A+V29F+W56D+S58N | nd / nd / nd / nd / nd / nd | nd | 0 of 18 |
| S25Q+V29W+S33D+N35V+W56G | 0.35 / 0.40 / 0.22 / 0.15 / 0.04 / 0.20 | 0.23 | 0 of 18 |
| S25A+V29F+N35W+W56G+T59Q | 0.85 / 0.64 / 0.60 / 0.69 / 0.46 / 0.70 | 0.66 | 2 of 18 (3.46) |
| S25F+S26E+N35T+W56N+R99Q | 0.43 / 0.28 / -0.05 / 0.06 / 0.30 / 0.61 | 0.27 | 2 of 18 (3.38) |
| Q27I+V29G+L30E+N35M+W56E | -0.20 / -0.05 / -0.21 / -0.25 / -0.21 / 0.01 | -0.15 | 0 of 18 |
| K24H+Q27G+V29T+W56N | -0.34 / -0.50 / -0.24 / -0.70 / -0.60 / -0.25 | -0.44 | 0 of 18 |
| K24S+S25L+S26M+Y31L+W56H+T59L+S62D | 0.26 / 0.12 / 0.36 / 0.25 / 0.37 / 0.40 | 0.30 | 1 of 18 (2.70) |
| S25L+N35T+K36S+W56N | 0.39 / 0.10 / 0.21 / 0.17 / 0.05 / 0.17 | 0.18 | 2 of 18 (2.83) |
| S25Q+Q27L+Y31Q+W56D | 0.34 / 0.00 / -0.04 / -0.07 / 0.08 / 0.13 | 0.07 | 1 of 18 (1.96) |
| S25L+V29D+E32D+W56N | -0.19 / -0.23 / -0.05 / -0.39 / -0.13 / -0.23 | -0.20 | 0 of 18 |
| S25V+W56H+S62D | 0.15 / 0.09 / -0.10 / -0.03 / 0.07 / 0.19 | 0.06 | 1 of 18 (2.56) |
| Q27V+Y31F+W56N | 0.07 / 0.24 / -0.01 / -0.31 / 0.16 / 0.26 | 0.07 | 1 of 18 (2.29) |
| K24H+S25L+Q27D+W56N+S62Q+S103N | 0.58 / 0.57 / 0.28 / 0.47 / 0.80 / 0.63 | 0.56 | 1 of 18 (4.24) |
| S25L+S26E+V29A+L30N+W56N | 0.20 / 0.28 / 0.51 / -0.04 / 0.01 / 0.09 | 0.18 | 1 of 18 (1.96) |
| Q27I+V29Y+W56G | 0.08 / -0.32 / -0.31 / -0.35 / -0.47 / -0.02 | -0.23 | 0 of 18 |
| L30Q+Y31V+E32Q+W56D | 0.31 / -0.10 / 0.05 / -0.21 / 0.15 / 0.17 | 0.06 | 0 of 18 |
| S25L+S26E+V29I+L30E+W56N+S62Q | -0.19 / -0.30 / -0.46 / -0.51 / -0.47 / -0.07 | -0.34 | 1 of 18 (2.13) |
| S25V+V29F+S38A+W56H | 0.25 / -0.07 / 0.02 / -0.16 / -0.04 / 0.13 | 0.02 | 0 of 18 |
| S26Q+V29W+L30E+W56H+S62D | 0.34 / 0.60 / 0.03 / 0.23 / 0.59 / 0.09 | 0.31 | 0 of 18 |
| Q27I+V29Y+Y31A+W56E | 0.10 / 0.10 / -0.13 / -0.26 / -0.18 / -0.08 | -0.07 | 0 of 18 |
| S25F+S28E+V29K+W56D | 0.07 / 0.08 / 0.12 / -0.03 / 0.11 / 0.21 | 0.10 | 2 of 18 (3.15) |
| S25L+S26A+Q27M+V29T | 2.33 / 3.49 / 2.21 / 1.41 / 1.71 / 1.56 | 2.12 | 1 of 18 (2.68) |
| S25Q+Q27N+Y31Q+W56D | -0.19 / -0.28 / 0.01 / -0.43 / -0.24 / 0.12 | -0.17 | 0 of 18 |
| Q27I+V29M+Y31G+W56E | 1.83 / 1.35 / 2.75 / 2.61 / 1.39 / 1.66 | 1.93 | 1 of 18 (3.31) |
| S25E+V29W+L30V+W56G | 0.19 / -0.28 / 0.33 / -0.01 / -0.15 / -0.08 | 0.00 | 1 of 18 (1.75) |
| S25L+S26E+S28G+V29D+W56G | -0.56 / -0.63 / -0.88 / -0.72 / -0.64 / -0.32 | -0.63 | 1 of 18 (2.69) |
| S25L+W56H+S62D+Q95K | 0.85 / 0.82 / 0.81 / 0.60 / 0.95 / 0.99 | 0.84 | 0 of 18 |
| Q27Y+V29E+Y31G+S33K+W56E | 0.18 / -0.08 / -0.02 / -0.14 / 0.08 / 0.30 | 0.05 | 0 of 18 |
| S25I+Q27K+Y31F+W56N | 0.78 / 1.00 / 1.45 / 0.85 / 1.02 / 1.31 | 1.07 | 4 of 18 (3.49) |